The assay relates to MCC cell lines. How it is done:
Serial drug dilutions from 10^−4 M to 10^−9 M were used on MCC and non-MCC cell lines. Cells were seeded into 384-well plates at 6000 cells in 50 μl of medium per well. After 24 hours, 25 μl of 3× drugs were added at increasing concentration to each well. Cell viability was then measured using Cell Titer Glo (Promega) kit following manufacturer's instructions as described previously. Each drug concentration was tested in triplicate for each cell line and experiments were repeated twice. EC50 doses for the drugs were calculated using a four parameter logistic equation (GraphPad Prism).

Regarding `CC(C)C[C@H](NC(=O)[C@H](Cc1ccccc1)NC(=O)c1cnccn1)B(O)O` [Bortezomib], the “selectivity of activity for MCV-positive cells” value is “not selective for MCV-positive cells”.

These data come from patent publication US9662329B2, “Use of survivin antagonists in polyomavirus-related disease” (University of Pittsburgh—Of the Commonwealth System of …, priority 2012, dated 2017).
